Tested on: HuT_78
Assay: CellTiter-Blue Cell Viability Assay
Format: cell-based, human
Details: HUT78 CTCL cells, 48 h, standard proliferation/viability assay (FIG. 3A)
Description: For the proliferation assay, cell lines were seeded on 96-well plates (Corning). After 24 hours of plating, the 96-well plates were treated with vorinostat (SAHA) (0, 0.004-30 uM). The CellTiter-Blue Reagent™ was added to each of the wells. Experiments were performed in triplicate. The plates were then placed at 37° C. for two hours, and subsequently read on the Flex Station II […] from Molecular Devices. The IC50 values were calculated using the Sigma Plot software. Combination index for the studies to test efficacy of Vorinostat and JAK inhibitors was calculated with CalcuSyn software (is there a web site for this or a reference that describes the software)
An expanded set of 50 human cell lines, including the twelve cell lines listed in Table 1, were assembled (Table 2), that represent a range of lymphoid tumor types (including 10 diffuse large B cell lymphoma, 10 Burkitt lymphoma, 8 multiple myeloma and 5 CTCL). As detailed in Example 1, each of these cell lines was cultured in vitro and response to vorinostat was assessed at 8 different concentrations (0 and 0.04 to 30 micromolar) at 24 hr using the ApoONE™ Homogeneous Caspase-3/7 Assay (Promega) and at 24, 48 and 72 h using the CellTiter-Blue™ Cell Viability Assay (Promega). The CellTiter Blue assay was used to determine the vorinostat IC50 for each cell line.

CC(C)(C)c1nc2c3cc[nH]c(=O)c3c3cc(F)ccc3c2[nH]1 [Compound B, 2-tert-butyl-9-fluoro-1,6-dihydro-7H-benzo[h]imidazo[4,5-f]isoquinolin-7-one]
anti-proliferative effect of co-incubation with vorinostat (0.37 μM): synergistic anti-proliferative effect

— US7919261B2, “Methods for predicting treatment response based on the expression profiles of protein and transcription biomarkers” (Merck Sharp & Dohme Corp., priority 2006, dated 2011)
